From PubChem BioAssay AID2057 (The Scripps Research Institute Molecular Screening Center, 2009) come the findings set out here.

Protein sequences, listed by entry. Tags and fused reporters are not part of them.
UniProt Q07820, whole entry, looked up: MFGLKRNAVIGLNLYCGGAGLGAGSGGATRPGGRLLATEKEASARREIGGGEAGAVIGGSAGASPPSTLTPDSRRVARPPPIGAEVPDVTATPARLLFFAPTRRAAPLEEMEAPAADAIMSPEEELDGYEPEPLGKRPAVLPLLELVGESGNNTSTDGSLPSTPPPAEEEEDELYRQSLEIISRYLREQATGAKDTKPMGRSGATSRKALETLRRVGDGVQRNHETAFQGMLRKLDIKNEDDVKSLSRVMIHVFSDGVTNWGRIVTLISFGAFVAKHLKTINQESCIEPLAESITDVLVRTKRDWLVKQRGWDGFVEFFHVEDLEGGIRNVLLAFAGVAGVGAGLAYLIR

This is a selection; strong and weak results do not stand in their true shares. Activity calls are given as the source filed them.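 The calls were made as follows: active = inhibition above the mean inhibition of all tested compounds plus 3 SD, set per campaign (cut at about 40% in these data); inactive = the rest.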

This assay has as its target Induced myeloid leukemia cell differentiation protein Mcl-1 (Homo sapiens) (UniProt Q07820). The experiment in a line: inhibitors of MCL1 binding to BIM-BH3, primary screen, biochemical, fluorescence polarization (AID 2057).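 Also: 0% = DMSO wells and 100% = unlabeled Bim-BH3 peptide control; higher means more loss of mP so more displacement of Bim peptide.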 The note with it: GST-MCL1 / FITC-Bim-BH3 fluorescence polarization; at 10.9 µM; stronger effect = higher value. On the technique in general: Polarisation of emitted light reports the rotation of a fluorescent probe.
By inhibition is commonly meant the change of the read-out against control, counted positive when it falls. As to `O=P1(Nc2ccc(Br)cn2)COc2ccccc2OC1`, the inhibition is inactive: 11.7%.
Turning to `NS(=O)(=O)c1cccc(NC(=O)COC(=O)C(O)(c2ccccc2)c2ccccc2)c1`, the inhibition was inactive: -2.48%.
The value for `O=[As](O)(c1cccs1)c1cccs1` was inactive: -6.12%; that for `Cc1ccc(OCC(=O)OC2CN3CCC2CC3)cc1` (centres undefined) was inactive: 1.47%; that for `Nc1cccc([As](=O)(O)c2ccccc2)c1` was inactive: 10.1%.
For `O=P1(Nc2ncccn2)COc2ccccc2OC1`, the inhibition was inactive: 0.43%.
Turning to `Clc1n[nH]nc1-c1nn[nH][15n]1`, the inhibition is inactive: 4.52%.
In the case of `CC(C)(C)C(=O)NC(Sc1ncccn1)C(Cl)(Cl)Cl` (centres undefined) it was inactive: 4.18%; in that of `CN(CCCl)Cc1cc(Cl)c(NC2=NCCN2)c(Cl)c1`, inactive: 5.39%; in that of `CCOP(=O)(Nc1ccc(C)cn1)OCC`, inactive: 1.74%.
In the case of `O=P1(Nc2ccccn2)COc2ccccc2OC1` it was inactive: -0.8%; in that of `CCC1=CC2Cc3nc4ccc(Cl)cc4c(N)c3C(C1)C2` (centres undefined), inactive: 7.41%.
In the case of `CCOP(=O)(NC(=NC(C)c1ccccc1)NC(C)c1ccccc1)OCC` (centres undefined) it was inactive: -0.17%.
Consider `O=[As](O)(c1ccccc1Br)c1ccccc1Br`, for which the inhibition is inactive: -7.68%.
In the case of `CC1(CBr)Cn2c(nc3ccccc3c2=O)S1` (centres undefined), the inhibition was inactive: -2.88%.
The value for `CC(C)/C=N\N=C(\N)N[N+](=O)[O-]` was inactive: -4.45%; that for `CN(C(=O)Cc1ccc(Cl)c(Cl)c1)[C@@H]1CCCC[C@H]1N1CCCC1` was inactive: 2.9%; that for `COc1ccccc1CNC(=O)COC(=O)C(O)(c1ccccc1)c1ccccc1` was inactive: -1.91%.
In the case of `O=C(COc1ccccc1)OC1CN2CCC1CC2` (centres undefined) it was inactive: 1.05%; in that of `O=C(Nc1ccncc1[N+](=O)[O-])c1ccc([N+](=O)[O-])cc1[N+](=O)[O-]`, inactive: 5.67%; in that of `CCC(C)N(CC(C)C)C(=S)SC(NC(C)=O)C(Cl)(Cl)Cl` (centres undefined), inactive: 17.5%.
In the case of `CCOC(=O)c1ccc(NC(=O)C(C)(CCl)SC)cc1` (centres undefined) it was inactive: -4.66%; in that of `O=C(OC1CN2CCC1CC2)c1cccc([N+](=O)[O-])c1` (centres undefined), inactive: -2.84%.
Consider `Cc1cc(SC(NC(=O)c2ccccc2)C(Cl)(Cl)Cl)nc(C(C)C)n1` (centres undefined), for which the inhibition is inactive: 20.6%.
For `CCOC(=O)Nc1ccc([As](=O)(O)O)c(O)c1`, the inhibition was inactive: 1.48%.
In the case of `O=P(Nc1ccccn1)(c1cccc2ccccc12)c1cccc2ccccc12` it was inactive: 1.83%.
The value for `Cc1cc(SC(NC=O)C(Cl)(Cl)Cl)ncn1` (centres undefined) was inactive: 10.2%; that for `CCOC(=O)Nc1cccc([As](=O)(O)O)c1` was inactive: 2.88%; that for `Cc1ccc2nc3c(c(C)c2c1)CC(C(Cl)Cl)S3` (centres undefined) was inactive: -4.42%.
The value for `Cc1ccc(OP(=O)(Nc2ccc([N+](=O)[O-])cn2)Oc2ccc(C)cc2)cc1` was inactive: -1.05%; that for `O=[As](O)(c1ccc(O)cc1)c1ccccc1O` was inactive: -7.61%; that for `C[As](=O)(O)c1cccc(C(=O)O)c1` was inactive: 9.44%.
On to `COc1cc(C(=O)NCC2(N3CCOCC3)CCCCC2)ccc1OCC(C)C`, for which the inhibition was inactive: -0.9%.
In the case of `CCN(CC)C(=S)SC(NC=O)C(Cl)(Cl)Cl` (centres undefined) it was inactive: 1.36%; in that of `CC(C)NC(=O)NP(=O)(Oc1ccccc1)Oc1ccccc1`, inactive: 3.34%.
In the case of `O=[N+]([O-])c1cc([N+](=O)[O-])c(-c2ccn[nH]2)s1` it was inactive: 2.45%.
For `CC(C)c1ccc(OP(=O)(Nc2ccccn2)Oc2ccccc2F)cc1` (centres undefined), the inhibition is inactive: -2.9%.
In the case of `ClCCSc1nnc(-c2cccnc2)o1` it was inactive: 7.6%; in that of `COc1ccc2nc(NP(=O)(c3ccccc3)c3ccccc3)sc2c1`, inactive: 5.34%; in that of `COc1cc(I)ccc1[As](=O)(O)O`, inactive: 8.15%.
The value for `O=C(OC1CN2CCC1CC2)C12CC3CC(CC(C3)C1)C2` (centres undefined) was inactive: 1.36%; that for `Cc1cc(=O)[nH]c(N[N+](=O)[O-])n1` was inactive: -3.35%.
The value for `Cc1c2c(nc3ccccc13)SC(C(Cl)Cl)C2` (centres undefined) was inactive: 7.76%; that for `COc1ccc(N/C(=N/P(=O)(N2CCOCC2)N2CCOCC2)N2CCOCC2)cc1` was inactive: -4.34%.
